From ChEMBL document CHEMBL1135693, “Solid-phase synthesis of polyamine toxin analogues: potent and selective antagonists of Ca2+-permeable AMPA receptors” (J Med Chem, 2002)

Assay: Ratio of Ki value at -40 mV to that of -80 mV was determined
Type: functional
Method in brief: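 Ki at GluR1 flop homomers in voltage-clamped Xenopus oocytes, from inhibition of 100 µM glutamate currents by co-applied antagonist, measured at holding potentials of -40 mV and -80 mV. The ratio is Ki(-40 mV)/Ki(-80 mV). Each Ki is the mean of two independent measurements in triplicate.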

CCCC(=O)NC(Cc1ccc(O)cc1)C(=O)NCCCCCCCCCNCCN (configuration not stated)
Ratio: 15

CCCC(=O)NC(Cc1ccc(O)cc1)C(=O)NCCCCCCCCNCCCN (configuration not stated)
Ratio: 123
